Laboratory results taken from US20250195530A1, “POLQ INHIBITORS” (ASTRAZENECA AB, priority 2022, published 2025).

Amino acid sequences for entries named in this document (tags omitted). Residues count along the entry.
UniProt O75417, 1780-2590: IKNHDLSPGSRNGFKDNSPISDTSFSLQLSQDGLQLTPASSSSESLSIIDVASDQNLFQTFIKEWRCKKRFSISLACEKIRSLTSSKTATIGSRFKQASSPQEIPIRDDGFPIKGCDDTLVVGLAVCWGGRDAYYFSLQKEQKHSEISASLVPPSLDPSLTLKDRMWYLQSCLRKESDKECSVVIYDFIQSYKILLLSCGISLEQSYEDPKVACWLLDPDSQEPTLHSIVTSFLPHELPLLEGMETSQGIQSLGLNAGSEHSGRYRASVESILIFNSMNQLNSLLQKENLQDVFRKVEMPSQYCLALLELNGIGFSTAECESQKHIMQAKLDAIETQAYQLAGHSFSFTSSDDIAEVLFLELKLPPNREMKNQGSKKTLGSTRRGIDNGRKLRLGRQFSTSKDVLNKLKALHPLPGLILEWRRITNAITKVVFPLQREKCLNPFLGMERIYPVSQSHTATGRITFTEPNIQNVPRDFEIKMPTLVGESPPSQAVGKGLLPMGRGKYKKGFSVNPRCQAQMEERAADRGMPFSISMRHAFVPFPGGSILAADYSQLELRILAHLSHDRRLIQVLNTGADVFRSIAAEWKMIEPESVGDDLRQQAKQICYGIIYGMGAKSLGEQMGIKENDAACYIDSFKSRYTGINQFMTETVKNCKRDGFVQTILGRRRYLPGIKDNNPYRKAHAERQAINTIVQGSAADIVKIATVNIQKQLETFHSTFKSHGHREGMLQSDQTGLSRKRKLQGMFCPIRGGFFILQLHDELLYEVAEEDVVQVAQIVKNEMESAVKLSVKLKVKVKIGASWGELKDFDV

Biological target: isolated polymerase domain (I1780-V2590) of DNA polymerase theta (Polθ) (Homo sapiens (Human), UniProt O75417)
Experiment: biochemical

Compound	IC50
Cc1ccnc(Cn2c(-c3ccc(OC4CNC(=O)OC4)cc3Cl)nc3c(OC4(C)CC4)ncnc32)c1 (racemic) [Example T187, 5-(3-chloro-4-(6-(1-methylcyclopropoxy)-9-((4-methylpyridin-2-yl)methyl)-9H-purin-8-yl)phenoxy)-1,3-oxazinan-2-one]	15.8 nM
Cc1cnc(Cn2c(-c3ccc(OCCCN4CC(O)C4)cc3Cl)nc3c(OC4(C)CC4)ncnc32)s1 [Example T244, 1-(3-(3-chloro-4-(6-(1-methylcyclopropoxy)-9-((5-methylthiazol-2-yl)methyl)-9H-purin-8-yl)phenoxy)propyl)azetidin-3-ol]	5.01 nM
Cc1nnc(Cn2c(-c3ccc(CC(N)=O)cc3Cl)nc3c(OC4(C)CC4)ncnc32)o1 [Example T2, 2-(3-chloro-4-(9-((5-methyl-1,3,4-oxadiazol-2-yl)methyl)-6-(1-methylcyclopropoxy)-9H-purin-8-yl)phenyl)acetamide]	6310 nM
CC(CCOc1ccc(-c2nc3c(OC4(C)CC4)ncnc3n2Cc2cc(F)cc(Cl)c2)c(Cl)c1)C(=O)O (single isomer, unassigned) [Example T272, 4-(3-chloro-4-(9-(3-chloro-5-fluorobenzyl)-6-(1-methylcyclopropoxy)-9H-purin-8-yl)phenoxy)-2-methylbutanoic acid]	3.98 nM
Cc1ccnc(Cn2c(-c3ccc(N4CCNC(=O)CC4)cc3Cl)nc3c(OC4(C)CC4)ncnc32)c1 [Example T339, 1-(3-chloro-4-(6-(1-methylcyclopropoxy)-9-((4-methylpyridin-2-yl)methyl)-9H-purin-8-yl)phenyl)-1,4-diazepan-5-one]	6.31 nM
CC1NCCN(CCOc2ccc(-c3nc4c(OC5(C)CC5)ncnc4n3Cc3ccccc3)c(Cl)c2)C1=O (single isomer, unassigned; isomer 2) [Example R14, 1-(2-(4-(9-benzyl-6-(1-methylcyclopropoxy)-9H-purin-8-yl)-3-chlorophenoxy)ethyl)-3-methylpiperazin-2-one (Isomer 2)]	2 nM
CC1(Oc2ncnc3c2nc(-c2cccc(OCC(=O)O)c2Cl)n3Cc2cccc(Cl)c2)CC1 [Example T41, 2-(2-chloro-3-(9-(3-chlorobenzyl)-6-(1-methylcyclopropoxy)-9H-purin-8-yl)phenoxy)acetic acid]	6.31 nM
Cc1ccnc(Cn2c(-c3ccc(CC(=O)N4CC5CC(C4)N5)cc3Cl)nc3c(OC4(C)CC4)ncnc32)c1 [Example T555, 1-(3,6-diazabicyclo[3.1.1]heptan-3-yl)-2-(3-chloro-4-(6-(1-methylcyclopropoxy)-9-((4-methylpyridin-2-yl)methyl)-9H-purin-8-yl)phenyl)ethan-1-one]	3.16 nM
CC(CCOc1ccc(-c2nc3c(OC4(C#N)CC4)ncnc3n2Cc2cccc(Cl)c2)c(Cl)c1)C(=O)O (racemic) [Example T252, 4-(3-chloro-4-(9-(3-chlorobenzyl)-6-(1-cyanocyclopropoxy)-9H-purin-8-yl)phenoxy)-2-methylbutanoic acid]	10 nM
Cc1ccnc(Cn2c(-c3ccc(CC(=O)NCCO)cc3Cl)nc3c(OC4(C)CC4)ncnc32)c1 [Example T224, 2-(3-chloro-4-(6-(1-methylcyclopropoxy)-9-((4-methylpyridin-2-yl)methyl)-9H-purin-8-yl)phenyl)-N-(2-hydroxyethyl)acetamide]	6.31 nM
COC(=O)CCOc1ccc(-c2nc3c(OC4(C)CC4)ncnc3n2Cc2cccc(Cl)c2)c(Cl)c1 [Example T156, methyl 3-(3-chloro-4-(9-(3-chlorobenzyl)-6-(1-methylcyclopropoxy)-9H-purin-8-yl)phenoxy)propanoate]	3.98 nM
CNCc1ccc(-c2nc3c(OC4(C)CC4)ncnc3n2Cc2cc(C)ccn2)c(Cl)c1 [Example T68, 1-(3-chloro-4-(6-(1-methylcyclopropoxy)-9-((4-methylpyridin-2-yl)methyl)-9H-purin-8-yl)phenyl)-N-methylmethanamine]	15.8 nM
Cc1ccnc(Cn2c(-c3ccc(OC4CCNC4=O)cc3Cl)nc3c(OC4(C)CC4)ncnc32)c1 (racemic) [Example T178, 3-(3-chloro-4-(6-(1-methylcyclopropoxy)-9-((4-methylpyridin-2-yl)methyl)-9H-purin-8-yl)phenoxy)pyrrolidin-2-one]	10 nM
CC(CCOc1ccc(-c2nc3c(OC4(C)CC4)ncnc3n2Cc2c(F)c(F)c(F)c(F)c2F)c(Cl)c1)C(=O)O (racemic) [Example T251, 4-(3-chloro-4-(6-(1-methylcyclopropoxy)-9-((perfluorophenyl)methyl)-9H-purin-8-yl)phenoxy)-2-methylbutanoic acid]	39.8 nM
CC1(Oc2ncnc3c2nc(-c2ccc(OCCN4CCNCC4)cc2Cl)n3Cc2nnco2)CC1 [Example T76, 2-((8-(2-chloro-4-(2-(piperazin-1-yl)ethoxy)phenyl)-6-(1-methylcyclopropoxy)-9H-purin-9-yl)methyl)-1,3,4-oxadiazole]	1000 nM
CC1(Oc2ncnc3c2nc(-c2ccc(OCCO)cc2Cl)n3Cc2cc(Cl)ccn2)CC1 [Example T15, 2-(3-chloro-4-(9-((4-chloropyridin-2-yl)methyl)-6-(1-methylcyclopropoxy)-9H-purin-8-yl)phenoxy)ethan-1-ol]	10 nM

Continued, values first:

IC50	Compound
5.01 nM	Cc1ccnc(Cn2c(-c3ccc(N4C[C@H]5CCN[C@H]5C4)cc3Cl)nc3c(OC4(C)CC4)ncnc32)c1 [Example T494, 8-(2-chloro-4-((3aR,6aR)-hexahydropyrrolo[3,4-b]pyrrol-5(1H)-yl)phenyl)-6-(1-methylcyclopropoxy)-9-((4-methylpyridin-2-yl)methyl)-9H-purine]
7.94 nM	Cc1ccnc(Cn2c(-c3ccc(OCC(=O)NCCCO)cc3Cl)nc3c(OC4(C)CC4)ncnc32)c1 [Example T373, 2-(3-chloro-4-(6-(1-methylcyclopropoxy)-9-((4-methylpyridin-2-yl)methyl)-9H-purin-8-yl)phenoxy)-N-(3-hydroxypropyl)acetamide]
7.94 nM	Cc1ccnc(Cn2c(-c3ccc(OCC(=O)NC(C)(C)CO)cc3Cl)nc3c(OC4(C)CC4)ncnc32)c1 [Example T519, 2-(3-chloro-4-(6-(1-methylcyclopropoxy)-9-((4-methylpyridin-2-yl)methyl)-9H-purin-8-yl)phenoxy)-N-(1-hydroxy-2-methylpropan-2-yl)acetamide]
100 nM	CC1(Oc2ncnc3c2nc(-c2ccc(OCCN4CCNCC4)cc2Cl)n3Cc2ccc(C#N)cn2)CC1 [Example T484, 6-((8-(2-chloro-4-(2-(piperazin-1-yl)ethoxy)phenyl)-6-(1-methylcyclopropoxy)-9H-purin-9-yl)methyl)nicotinonitrile]
2.51 nM	CC1(Oc2ncnc3c2nc(-c2ccc(OCCOC(C)(C)C(=O)O)cc2Cl)n3Cc2cccc(Cl)c2)CC1 [Example T450, 2-(2-(3-chloro-4-(9-(3-chlorobenzyl)-6-(1-methylcyclopropoxy)-9H-purin-8-yl)phenoxy)ethoxy)-2-methylpropanoic acid]
6.31 nM	Cc1ccnc(Cn2c(-c3cccc(OCCCN(C)C)c3Cl)nc3c(OC4(C)CC4)ncnc32)c1 [Example T386, 3-(2-chloro-3-(6-(1-methylcyclopropoxy)-9-((4-methylpyridin-2-yl)methyl)-9H-purin-8-yl)phenoxy)-N,N-dimethylpropan-1-amine]
6.31 nM	CC1(Oc2ncnc3c2nc(-c2ccc(OCCCCCCC(=O)O)cc2Cl)n3Cc2cccc(Cl)c2)CC1 [Example T561, 7-(3-chloro-4-(9-(3-chlorobenzyl)-6-(1-methylcyclopropoxy)-9H-purin-8-yl)phenoxy)heptanoic acid]
2.51 nM	CC1(Oc2ncnc3c2nc(-c2ccc(F)c(OCCC(=O)O)c2Cl)n3Cc2cccc(Cl)c2)CC1 [Example U65, 3-(2-chloro-3-(9-(3-chlorobenzyl)-6-(1-methylcyclopropoxy)-9H-purin-8-yl)-6-fluorophenoxy)propanoic acid]
6.31 nM	CN(C)CCCOc1ccc(-c2nc3c(OC4(C)CC4)ncnc3n2Cc2cc(C(F)F)ccn2)c(Cl)c1 [Example T352, 3-(3-chloro-4-(9-((4-(difluoromethyl)pyridin-2-yl)methyl)-6-(1-methylcyclopropoxy)-9H-purin-8-yl)phenoxy)-N,N-dimethylpropan-1-amine]
10 nM	CC(CCOc1ccc(-c2nc3c(OC4(C)CC4)ncnc3n2Cc2cc(Cl)ccc2OC(F)F)c(Cl)c1)C(=O)O (racemic) [Example U60, 4-(3-chloro-4-(9-(5-chloro-2-(difluoromethoxy)benzyl)-6-(1-methylcyclopropoxy)-9H-purin-8-yl)phenoxy)-2-methylbutanoic acid]
10 nM	CC1(Oc2ncnc3c2nc(-c2ccc(OCCC4(C(=O)O)CC4)cc2Cl)n3Cc2cccc(Cl)c2)CC1 [Example T407, 1-(2-(3-chloro-4-(9-(3-chlorobenzyl)-6-(1-methylcyclopropoxy)-9H-purin-8-yl)phenoxy)ethyl)cyclopropane-1-carboxylic acid]
7.94 nM	Cc1cc(OCCCN(C)C)ccc1-c1nc2c(OC3(C)CC3)ncnc2n1Cc1cc(Cl)ccn1 [Example T387, 3-(4-(9-((4-chloropyridin-2-yl)methyl)-6-(1-methylcyclopropoxy)-9H-purin-8-yl)-3-methylphenoxy)-N,N-dimethylpropan-1-amine]
12.6 nM	CC1(Oc2ncnc3c2nc(-c2ccc(OCCN4CCNCC4)cc2Cl)n3Cc2nccc(Cl)c2F)CC1 [Example T345, 9-((4-chloro-3-fluoropyridin-2-yl)methyl)-8-(2-chloro-4-(2-(piperazin-1-yl)ethoxy)phenyl)-6-(1-methylcyclopropoxy)-9H-purine]
3.16 nM	Cc1ccnc(Cn2c(-c3ccc(CC(=O)N4CC5(CNC5)C4)cc3Cl)nc3c(OC4(C)CC4)ncnc32)c1 [Example T558, 2-(3-chloro-4-(6-(1-methylcyclopropoxy)-9-((4-methylpyridin-2-yl)methyl)-9H-purin-8-yl)phenyl)-1-(2,6-diazaspiro[3.3]heptan-2-yl)ethan-1-one]
3.98 nM	Cc1ccnc(Cn2c(-c3ccc(CC(=O)N4CC5(CCN5)C4)cc3Cl)nc3c(OC4(C)CC4)ncnc32)c1 [Example T556, 2-(3-chloro-4-(6-(1-methylcyclopropoxy)-9-((4-methylpyridin-2-yl)methyl)-9H-purin-8-yl)phenyl)-1-(1,6-diazaspiro[3.3]heptan-6-yl)ethan-1-one]
